Source: ChEMBL document CHEMBL4364301 (Eur J Med Chem, 2019)

Key:
Type in all cases: functional
[1] = system: DU-145; assay: Antiproliferative activity against human DU145 cells assessed as reduction in cell growth incubated for 96 hrs by propidium iodide based 2D monolayer assay
Procedure, shortened: (§1)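 After 24 h recovery, compound in medium or medium alone (control wells) was added at 10 half-log concentrations from 0.0032 to 100 µM, in triplicate, with at most 0.3% DMSO. After 96 h, wells were PBS-washed, stained with 7 µg/ml PI and 0.1% Triton X-100, and fluorescence read at 530/620 nm. IC50 came from a 4-parameter fit, geometric mean.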

[2] = system: CWR22R; assay: Antiproliferative activity against human 22Rv1 cells assessed as reduction in cell growth incubated for 96 hrs by propidium iodide based 2D monolayer assay; procedure, shortened: as §1
[3] = system: LNCaP; assay: Antiproliferative activity against human LNCAP cells assessed as reduction in cell growth incubated for 96 hrs by propidium iodide based 2D monolayer assay; procedure, shortened: as §1
[4] = system: VCaP; assay: Antiproliferative activity against human VCaP cells assessed as reduction in cell growth incubated for 96 hrs by propidium iodide based 2D monolayer assay
Procedure, shortened: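 VCaP cells in RPMI 1640 with 10% FCS at 37 °C, 5% CO2, seeded 4,000–20,000 cells/well and left 24 h before dosing. Compounds from DMSO stocks were diluted in half-log steps in medium, 10 concentrations 0.0032–100 μM, triplicate wells, max 0.3% DMSO. After 96 h, cells were washed, stained with 7 μg/ml propidium iodide plus 0.1% Triton X-100 for 1–2 h at room temperature, and fluorescence read at ex 530/em 620 nm.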

Measured: Activity

CC(O)(CSc1cc(C(F)(F)F)cc(C(F)(F)F)c1)C(=O)Nc1cccc(C(F)(F)C(F)(F)F)c1 (racemic)
active: [1] Dose-dependent effect | [2] Dose-dependent effect | [3] Dose-dependent effect | [4] Dose-dependent effect

CC(O)(COc1cccc(C(F)(F)C(F)(F)F)c1)C(=O)Nc1cc(C(F)(F)F)cc(C(F)(F)F)c1 (racemic)
active: [1] Dose-dependent effect | [2] Dose-dependent effect | [3] Dose-dependent effect | [4] Dose-dependent effect

CC(O)(COc1ccc(C(F)(F)C(F)(F)F)cc1)C(=O)Nc1cc(C(F)(F)F)cc(C(F)(F)F)c1 (racemic)
active: [1] Dose-dependent effect | [2] Dose-dependent effect | [3] Dose-dependent effect | [4] Dose-dependent effect

CC(O)(COc1cccc(C(F)(F)C(F)(F)F)c1)C(=O)Nc1ccc(C(F)(F)F)cc1 (racemic)
active: [1] Dose-dependent effect | [2] Dose-dependent effect | [3] Dose-dependent effect | [4] Dose-dependent effect

CC(O)(CS(=O)(=O)c1ccc(OC(F)(F)F)cc1)C(=O)Nc1cccc(S(F)(F)(F)(F)F)c1 (racemic)
active: [1] Dose-dependent effect | [2] Dose-dependent effect | [3] Dose-dependent effect | [4] Dose-dependent effect

CC(O)(CS(=O)(=O)c1cc(C(F)(F)F)cc(C(F)(F)F)c1)C(=O)Nc1cccc(S(F)(F)(F)(F)F)c1 (racemic)
active: [1] Dose-dependent effect | [2] Dose-dependent effect | [3] Dose-dependent effect | [4] Dose-dependent effect

CC(O)(CS(=O)(=O)c1ccccc1C(F)(F)F)C(=O)Nc1cccc(S(F)(F)(F)(F)F)c1 (racemic)
active: [1] Dose-dependent effect | [2] Dose-dependent effect | [3] Dose-dependent effect | [4] Dose-dependent effect

CC(O)(COc1cc(C(F)(F)F)cc(C(F)(F)F)c1)C(=O)Nc1cccc(C(F)(F)C(F)(F)F)c1 (racemic)
active: [1] Dose-dependent effect | [2] Dose-dependent effect | [3] Dose-dependent effect | [4] Dose-dependent effect

CC(O)(CS(=O)(=O)c1cccc(OC(F)(F)F)c1)C(=O)Nc1cccc(S(F)(F)(F)(F)F)c1 (racemic)
active: [1] Dose-dependent effect | [2] Dose-dependent effect | [3] Dose-dependent effect | [4] Dose-dependent effect

CC(O)(CS(=O)(=O)c1ccccc1OC(F)(F)F)C(=O)Nc1cccc(S(F)(F)(F)(F)F)c1 (racemic)
active: [1] Dose-dependent effect | [2] Dose-dependent effect | [3] Dose-dependent effect | [4] Dose-dependent effect
